These are literature values, as cited in US20130079342A1, “HETEROCYCLIC COMPOUNDS AND THEIR USES” (priority 2011, published 2013).

The chains behind the UniProt entries cited, without tags or fusion partners.
UniProt P42338, whole entry, species assumed: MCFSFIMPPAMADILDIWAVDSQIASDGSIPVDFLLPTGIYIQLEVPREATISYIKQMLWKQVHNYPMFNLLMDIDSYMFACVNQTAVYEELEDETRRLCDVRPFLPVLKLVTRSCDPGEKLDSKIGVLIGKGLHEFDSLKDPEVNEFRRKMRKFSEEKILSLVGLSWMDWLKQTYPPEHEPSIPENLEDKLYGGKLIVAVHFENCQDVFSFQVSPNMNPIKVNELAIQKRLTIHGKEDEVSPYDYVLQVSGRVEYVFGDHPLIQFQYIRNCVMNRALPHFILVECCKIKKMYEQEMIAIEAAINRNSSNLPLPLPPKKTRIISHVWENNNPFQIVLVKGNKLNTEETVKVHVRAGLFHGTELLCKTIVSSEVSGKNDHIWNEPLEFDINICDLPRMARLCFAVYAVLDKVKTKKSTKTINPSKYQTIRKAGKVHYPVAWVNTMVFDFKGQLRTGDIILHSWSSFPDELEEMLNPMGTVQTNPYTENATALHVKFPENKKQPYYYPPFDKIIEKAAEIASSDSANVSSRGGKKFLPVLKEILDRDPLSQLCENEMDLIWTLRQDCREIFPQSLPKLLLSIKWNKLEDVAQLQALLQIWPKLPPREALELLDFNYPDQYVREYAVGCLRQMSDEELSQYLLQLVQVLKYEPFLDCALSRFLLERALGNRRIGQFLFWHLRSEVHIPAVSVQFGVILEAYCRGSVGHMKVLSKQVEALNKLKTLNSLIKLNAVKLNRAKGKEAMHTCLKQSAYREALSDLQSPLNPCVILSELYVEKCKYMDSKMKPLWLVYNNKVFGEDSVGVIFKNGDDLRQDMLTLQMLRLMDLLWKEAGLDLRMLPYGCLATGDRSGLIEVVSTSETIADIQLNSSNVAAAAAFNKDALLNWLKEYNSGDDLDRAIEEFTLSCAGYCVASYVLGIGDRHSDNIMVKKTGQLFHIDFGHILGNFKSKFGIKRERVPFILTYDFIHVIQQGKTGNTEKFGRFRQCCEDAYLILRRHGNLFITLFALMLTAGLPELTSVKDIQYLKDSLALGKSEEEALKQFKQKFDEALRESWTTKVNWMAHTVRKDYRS

In this data set the target is p110β (Homo sapiens, UniProt P42338). Conditions: quantity not given; read-out: potency on beta.

Regarding `Cc1cc(C(C)Nc2ccccc2)c2nc(N3CCOCC3)cc(=O)n2c1` (stereo not shown) [TGX-221], the IC50 was 7 nM.
